Literature values, collected in PubChem BioAssay AID977610.

How the values were obtained:
Experiment in all cases: PubChem AID 977610
[1] = target: Biotin carboxylase(R16E mutant); conditions: PDB protein-ligand complexes, literature Ki; protein: Biotin carboxylase(R16E mutant); PDB entry 3RV4
[2] = target: Kinesin-like protein KIF1A; conditions: PDB protein-ligand complexes, literature Ki; protein: Kinesin-like protein KIF1A; PDB entry 2ZFI
[3] = target: Biotin carboxylase; conditions: PDB protein-ligand complexes, literature Ki; protein: Biotin carboxylase; PDB entry 3RUP
[4] = target: Sulfolobus tokodaii hexokinase; conditions: PDB protein-ligand complexes, literature Ki; protein: Sulfolobus tokodaii hexokinase; PDB entry 2E2P
[5] = target: Lipoprotein E, rP4; conditions: PDB protein-ligand complexes, literature Ki; protein: Lipoprotein E, rP4; PDB entry 3OCZ
[6] = target: carbamoyl-phosphate synthase; conditions: PDB protein-ligand complexes, literature Ki; protein: carbamoyl-phosphate synthase; PDB entry 1BXR
[7] = target: FAMILY GH92 INVERTING MANNOSIDASE BT3990; conditions: PDB protein-ligand complexes, literature Ki; protein: FAMILY GH92 INVERTING MANNOSIDASE BT3990; PDB entry 2WVZ
[8] = target: alpha-mannosidase ii; conditions: PDB protein-ligand complexes, literature Ki; protein: alpha-mannosidase ii; PDB entry 1PS3
[9] = target: 2-enoyl-coa hydratase; conditions: PDB protein-ligand complexes, literature Ki; protein: 2-enoyl-coa hydratase; PDB entry 1DUB
[10] = target: Beta-hexosaminidase; conditions: PDB protein-ligand complexes, literature Ki; protein: Beta-hexosaminidase; PDB entry 3SUV
[11] = target: Ribose 5-phosphate isomerase, RpiB; conditions: PDB protein-ligand complexes, literature Ki; protein: Ribose 5-phosphate isomerase, RpiB; PDB entry 3K8C
[12] = target: Estradiol 17-beta-dehydrogenase 1; conditions: PDB protein-ligand complexes, literature Ki; protein: Estradiol 17-beta-dehydrogenase 1; PDB entry 3HB4
[13] = target: phosphoglycerate mutase 1; conditions: PDB protein-ligand complexes, literature Ki; protein: phosphoglycerate mutase 1; PDB entry 1BQ3
[14] = target: calpain; conditions: PDB protein-ligand complexes, literature Ki; protein: calpain; PDB entry 1ALW
[15] = target: Calmodulin-domain protein kinase 1; conditions: PDB protein-ligand complexes, literature Ki; protein: Calmodulin-domain protein kinase 1; PDB entry 3UPZ
[16] = target: Proto-oncogene tyrosine-protein kinase Src; conditions: PDB protein-ligand complexes, literature Ki; protein: Proto-oncogene tyrosine-protein kinase Src; PDB entry 3UQG
[17] = target: Human glutamate carboxypeptidase II (GCPII); conditions: PDB protein-ligand complexes, literature Ki; protein: Human glutamate carboxypeptidase II (GCPII); PDB entry 2XEF
[18] = target: Plasmodium falciparum M17 leucyl aminopeptidase; conditions: PDB protein-ligand complexes, literature Ki; protein: Plasmodium falciparum M17 leucyl aminopeptidase; PDB entry 3KR5
[19] = target: hepatocyte growth factor receptor(HGF), Met kinase; conditions: PDB protein-ligand complexes, literature Ki; protein: hepatocyte growth factor receptor(HGF), Met kinase; PDB entry 3F82
[20] = target: thermolysin; conditions: PDB protein-ligand complexes, literature Ki; protein: thermolysin; PDB entry 1TLP
[21] = target: ENDOPEPTIDASE, PEPTIDASE FAMILY M13; conditions: PDB protein-ligand complexes, literature Ki; protein: ENDOPEPTIDASE, PEPTIDASE FAMILY M13; PDB entry 3ZUK
[22] = target: Mevalonate diphosphate decarboxylase; conditions: PDB protein-ligand complexes, literature Ki, protein: Mevalonate diphosphate decarboxylase
[23] = target: Mevalonate diphosphate decarboxylase(D283A); conditions: PDB protein-ligand complexes, literature Ki; protein: Mevalonate diphosphate decarboxylase(D283A); PDB entry 4DU8
[24] = target: phosphoglycerate kinase; conditions: PDB protein-ligand complexes, literature Ki; protein: phosphoglycerate kinase; PDB entry 16PK
[25] = target: E. coli EPSP synthase (T97I); conditions: PDB protein-ligand complexes, literature Ki; protein: E. coli EPSP synthase (T97I); PDB entry 3FJZ

In the case of `Nc1ncnc2c1ncn2[C@@H]1O[C@H](COP(=O)(O)OP(=O)(O)O)[C@@H](O)[C@H]1O`, the Ki [1] is given as 5000 µM, the Ki [2] is given as 350 µM and the Ki [3] is given as 27000 µM. For the same molecule, the Ki [4] was 18 µM.
In the case of `Nc1ncnc2c1ncn2[C@@H]1O[C@H](COP(O)(O)=S)[C@@H](O)[C@H]1O`, the Ki [5] is listed as 0.035 µM.
In the case of `Nc1ncnc2c1ncn2[C@@H]1O[C@H](COP(=O)(O)OP(=O)(O)NP(=O)(O)O)[C@@H](O)[C@H]1O`, the Ki [6] is given as 400 µM.
For `O=C1N[C@@H]2[C@@H](O)[C@@H](O)[C@H](O)[C@@H](CO)N2C1=O`, the Ki [7] is given as 96 µM and the Ki [8] is given as 5200 µM.
In the case of `CC(=O)CC(=O)SCCNC(=O)CCNC(=O)[C@H](O)C(C)(C)COP(=O)(O)OP(=O)(O)OC[C@H]1O[C@@H](n2cnc3c(N)ncnc32)[C@H](O)[C@@H]1OP(=O)(O)O`, the Ki [9] is given as 1.6 µM.
In the case of `CC(=O)N[C@H]1CN[C@H](CO)[C@@H](O)[C@@H]1O`, the Ki [10] is listed as 28 µM.
For `O=C(NO)[C@H](O)[C@H](O)COP(=O)(O)O`, the Ki [11] is given as 1200 µM.
In the case of `C[C@]12CC[C@@H]3c4ccc(O)cc4CC[C@H]3[C@@H]1C[C@H](Cc1cccc(C(N)=O)c1)[C@@H]2O`, the Ki [12] is given as 0.0009 µM.
In the case of `O=P(O)(O)OC1C(OP(=O)(O)O)C(OP(=O)(O)O)C(OP(=O)(O)O)C(OP(=O)(O)O)C1OP(=O)(O)O` (stereo unspecified), the Ki [13] is listed as 4 µM.
For `O=C(O)[C@@H](S)Cc1ccccc1`, the Ki [14] is given as 0.3 µM.
In the case of `Nc1ncnc2c1cnn2CC1CCNCC1`, the Ki [15] is listed as 2.5 µM and the Ki [16] is listed as 10 µM.
For `O=C(O)CC[C@H](NC(=O)N[C@@H](CCCCn1cc(COCCOCCOCCOCCOCCOCCOCCOCCNc2ccc([N+](=O)[O-])cc2[N+](=O)[O-])nn1)C(=O)O)C(=O)O`, the Ki [17] is listed as 0.000145 µM.
For `N[C@H](CCc1ccccc1)P(=O)(O)C[C@@H](Cc1ccccc1)C(=O)O`, the Ki [18] is given as 0.013 µM.
For `CCOc1ccn(-c2ccc(F)cc2)c(=O)c1C(=O)Nc1ccc(Oc2ccnc(N)c2Cl)c(F)c1`, the Ki [19] is listed as 0.0046 µM.
In the case of `CC(C)C[C@H](NP(=O)(O)O[C@@H]1O[C@@H](C)[C@H](O)[C@@H](O)[C@H]1O)C(=O)N[C@@H](Cc1c[nH]c2ccccc12)C(=O)O`, the Ki [20] is listed as 0.028 µM and the Ki [21] is listed as 0.035 µM.
For `O=C(O)[C@@H]1CCCN1C(=O)COP(=O)(O)OP(=O)(O)O`, the Ki ([22]; PDB entry 3QT6) is given as 4.3 µM, the Ki ([22]; PDB entry 4DPY) is given as 4.3 µM and the Ki [23] is given as 4.3 µM.
In the case of `Nc1ncnc2c1ncn2[C@@H]1O[C@H](COP(=O)(O)OP(=O)(O)C(F)(F)CCCC(F)(F)P(=O)(O)O)[C@@H](O)[C@H]1O`, the Ki [24] is listed as 6 µM.
For `O=C(O)CNCP(=O)(O)O`, the Ki [25] is listed as 90 µM.
